From US12234230B2, “Substituted benzyl-triazole compounds for Cbl-b inhibition, and further uses thereof” (Nurix Therapeutics, Inc., priority 2019, dated 2025)

Legend:
[1] = system: primary human total T-cells; assay: Primary human total T-cell activation (IL-2 secretion, CD25 surface staining), Biological Example 9; details: anti-CD3 stimulation alone, fold change over baseline, Table 9-1
[2] = system: primary human total T-cells; assay: Primary human total T-cell activation (IL-2 secretion, CD25 surface staining), Biological Example 2; details: anti-CD3 stimulation alone, fold change over baseline
[3] = system: primary human total T-cells; assay: Primary human total T-cell activation (IL-2 secretion, CD25 surface staining), Biological Example 12; details: anti-CD3 stimulation alone, fold change over baseline, Table 12-1

C[C@H]1CCCN(Cc2cc3c(c(C(F)(F)F)c2)CN(c2cccc([C@]4(c5nncn5C)C[C@@H](C)C4)c2)C3=O)C1 [Compound 23, 2-(3-((1s,3R)-3-methyl-1-(4-methyl-4H-1,2,4-triazol-3-yl)cyclobutyl)phenyl)-6-(((S)-3-methylpiperidin-1-yl)methyl)-4-(trifluoromethyl)isoindolin-1-one]
IL-2 secretion CD3 1 μM ([1]; 1 μM inhibitor): A (A indicates >0.66 fold) | IL-2 secretion CD3 3 μM ([1]; 3 μM inhibitor): A (A indicates >0.66 fold) | CD25 staining CD3 1 μM ([2]; 1 μM inhibitor): B (B indicates 1.5-2.5 fold) | IL-2 secretion CD3 1 μM ([2]; 1 μM inhibitor): B (B indicates 0.70-1.1 fold) | CD25 staining CD3 3 μM ([2]; 3 μM inhibitor): A (A indicates >2.5 fold) | IL-2 secretion CD3 3 μM ([2]; 3 μM inhibitor): A (A indicates >1.1 fold) | IL-2 secretion CD3 1 μM ([3]; 1 μM inhibitor): A (A indicates >0.66 fold) | IL-2 secretion CD3 3 μM ([3]; 3 μM inhibitor): A (A indicates >0.66 fold)
